Source: ChEMBL document CHEMBL1145967, “Design, synthesis, and biological activities of classical N-[4-[2-(2-amino-4-ethylpyrrolo[2,3-d]pyrimidin-5-yl)ethyl]benzoyl]-l-glutamic acid and its 6-methyl derivative as potential dual inhibitors of thymidylate synthase and dihydrofolate reductase and as potential antitumor agents” (J Med Chem, 2003)

Target: T1, Dihydrofolate reductase (Homo sapiens, UniProt P00374)
T1 sequence (P00374 whole entry): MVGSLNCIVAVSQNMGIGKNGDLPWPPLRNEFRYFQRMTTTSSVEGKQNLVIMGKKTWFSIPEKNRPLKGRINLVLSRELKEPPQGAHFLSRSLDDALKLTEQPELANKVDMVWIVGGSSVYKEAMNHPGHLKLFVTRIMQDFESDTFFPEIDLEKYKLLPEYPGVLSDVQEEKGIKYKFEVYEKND

IC50: 1400 nM
Compound: Nc1nc2[nH]cc(CCc3ccc(C(=O)N[C@@H](CCC(=O)O)C(=O)O)cc3)c2c(=O)[nH]1 [PEMETREXED]
